# ERG-DNA inh: inhibitors of human ERG Ets domain-DNA interaction; Potency, µM (series often up to 76.9 µM), usual class: inhibitors; P11308; fluorescence polarization, His-ERG Ets domain / labelled DNA; 370,000 compounds, 0.028% hits; active means well fitted inhibition curve with a large enough effect in the polarisation, with a control signal flat; inconclusive means small, poorly fitted or top-dose-only effect, or effect the other way, or a change in a side signal; inactive means no such curve, though single readings can be large or run the other way; the % refers to the polarisation;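 further: polarization taken with two DNA probes labelled with fluorescein and Texas red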
#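 His-tagged ERG Ets domain (1 uM in the protein solution; 300mM KCl, 50mM Tris-HCl, 1mM EDTA, 1mM DTT, pH 7.5) received compound, then a probe mix of 5 nM fluorescein-DNA and 100nM Texas-615-DNA. Fluorescence polarization was read for both dyes.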
# PINK1 modulator: modulators of PINK1 expression. Potency, µM (doses to about 76.6 µM), most hits filed as activators. PINK1 immunofluorescence, high-content cytometry, 24 h. AID 624263. 410,000 compounds, 0.2% hits; active means well fitted activation curve with a large enough effect; inconclusive means small, poorly fitted or top-dose-only effect; cell line not stated here; further: nearly all actives have a fitted effect of over 65% in size
#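 PINK1 protein, normally rapidly degraded, was detected by immunofluorescence after 24 hour compound treatment of a stable cell line. Titration data (5 concentrations) came from laser-scanning cytometry, with CCCP-treated wells as controls.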
# Giardia kill: Giardia lamblia killing. Giardia lamblia trophozoite viability. activity change, % at 7.66 µM, hits read low. 340,000 compounds, 0.15% hits. AID 540267; in the data active means activity change below about -80%; inconclusive means between about -30% and that limit;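 further: parasites exposed to compound for two days anaerobically before the ATP read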
#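 Giardia lamblia trophozoites (100 cells/well) were incubated with compounds for 48 h at 37 deg C under anaerobic conditions. Viability was read as ATP content by one-step luminescence after 15-30 min at room temperature.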
# miR-21 reporter: miR-21 reporter, rising signal | AID 2288 | HeLa miR-21 FLuc reporter, luciferase, 48 h | 340,000 tested, under 10 active | Potency, µM (doses to about 38.3 µM); active = well fitted rising curve with a large enough effect; inconclusive = small, poorly fitted or top-dose-only effect; inactive = no such curve, though single readings can be large or run the other way;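 note: miR-21 action dims this reporter so a rising signal means less miR-21 action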
#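 HeLa cells endogenously expressing miR-21, stably carrying CMV-driven firefly luciferase with a downstream miR-21 binding site, 2000 cells/well. Titrations up to approximately 40 uM, 48 hours; luciferase luminescence read.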
# 12-LOX inh: inhibitors of human 12S-lipoxygenase ALOX12. AID 1671190. Potency, µM (titrated, usually from 108 µM), usual class: inhibitors. P18054. 580,000 compounds, 1.1% hits. purified 12hLO, xylenol orange hydroperoxide absorbance
#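 Hydroperoxide product was detected by ferrous iron/xylenol orange as the 573 to 405 nm absorbance ratio. Arachidonic acid at 40 uM (final) was turned over for 30 min at room temperature by 150 nM human 12hLO, pH 7.0 Hepes buffer, after 15 min compound preincubation.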
# PTHR1 ag: activates the human parathyroid hormone receptor PTHR1; Potency, µM (top dose mostly 115 µM), hits mostly activators; HEK293 GP2 PTHR1 cells, GloSensor cAMP luminescence, 1 h; AID 743266; Q03431; 410,000 compounds, 0.075% hits; further: nearly all actives have a fitted effect of over 55% in size
#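 HEK-293-derived GP2 cells expressing PTHR1 and a GloSensor cAMP reporter, 3,000/well, plated overnight, given luciferin plus IBMX (each 0.5 mM as added) for 1 h at 37 °C, then compound for 1 h at 37 °C. Luminescence was read after 15 min at room temperature.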
# Numbers stand for hits; i = inactive; ? = inconclusive; nt = no result given; ! = not confirmed by another sample; [ ] = dose if it differs, or a comment. In the library only some 1.3% were active in any assay of this set; here they are far more common. Unless noted, the call rests on the fitted dose curve; in most records, active means well fitted curve in the direction sought with a large enough effect; inconclusive means small, poorly fitted or top-dose-only effect, or another doubt; inactive means no such curve, though single readings can be large; an effect the other way counts as inactive or inconclusive.
SMILES,ERG-DNA inh,PINK1 modulator,Giardia kill,miR-21 reporter,12-LOX inh,PTHR1 ag
C=CCn1c(=O)/c(=C/c2ccc(C)o2)s/c1=C(/C#N)C(=O)c1ccccc1,?,?,i,i,11µM,i
OC(CN1CCNCC1)Cn1c2ccc(Br)cc2c2cc(Br)ccc21 (stereo not given),nt,nt,nt,nt,28µM,nt
CCN(CC)c1ccc(N)cc1,i,14µM,i,nt,nt,i
Nc1ccc(N(CCO)CCO)cc1,i,i,i,i,i,i
N#Cc1cccc(CN2CCC(=O)N([C@H](CO)Cc3ccccc3)CC2)c1,i,i,i,i,i,i
CCN1CCN(c2ccc(NC(=O)c3ccc([N+](=O)[O-])o3)cc2Cl)CC1,i,i,?,i,i,i
CC(=O)N1CCN(c2ccc(NC(=O)c3ccc([N+](=O)[O-])o3)cc2Cl)CC1,i,i,-81,i,?,i
CCC(=O)N1CCN(c2ccc(NC(=O)c3ccc([N+](=O)[O-])o3)cc2Cl)CC1,i,i,-92,i,?,i
CCC(=O)N1CCN(c2ccc(Cl)cc2NC(=O)c2cccc([N+](=O)[O-])c2)CC1,i,i,i,i,i,i
CCC(=O)N1CCN(c2ccc(Cl)cc2NC(=O)c2ccc([N+](=O)[O-])o2)CC1,i,i,-101,i,i,i
CCc1cc2c(COC(=O)CCNS(=O)(=O)c3cccc(C(F)(F)F)c3)cc(=O)oc2cc1O,i[15.4 µM],i,i,nt,?,i
CC(c1ccccc1)N1CC(C(=O)O)CC1=O (stereo not given),i,i,i,i,i,i
NS(=O)(=O)c1ccc(NC(=O)CN2C(=O)COc3ccc(Cl)cc32)cc1,i,i,nt,i,45µM,i
Cc1cccnc1NC(=O)CN1C(=O)COc2ccc(Cl)cc21,i,i,i,i,13µM,i
N#Cc1c(SCC(=O)O)nc(-c2ccccc2)c2c1CCCC2,i,i,i,i,i,i
CC(=O)OCC1=C(C(=O)O)N2C(=O)C(NC(=O)c3ccc(COc4ccc(Cl)cc4)o3)C2SC1 (stereo not given),i,i,i,i,40µM,i
CC(=O)OCC1=C(C(=O)O)N2C(=O)C(NC(=O)c3ccc(COc4c(C)cccc4Cl)o3)C2SC1 (stereo not given),i,i,i,i,?,i
CC(=O)O[C@]1(C(C)=O)CC[C@H]2[C@@H]3C[C@H](C)C4=CC(=O)CC[C@]4(C)[C@H]3CC[C@@]21C,25µM!,32µM,i,i,i,i
CC(=O)C12CCCCC1CC1[C@@H]3CC(C)C4=CC(=O)CC[C@]4(C)C3CC[C@@]12C (stereo not given in full),i,16µM,i,i,i,i
CC(=O)OC1(C(C)=O)CCC2C3CC(C(F)(F)F)C4=CC(=O)CCC4(C)C3CCC21C (stereo not given),i,i,i,nt,i,i
COc1ccc(Br)cc1C12CC3CC(CC(C3)C1)C2,nt,nt,nt,nt,i,nt
Cc1c(NS(=O)(=O)c2ccc(C(=O)N(C)Cc3cccc(Cl)c3Cl)cc2)c(=O)n(-c2ccccc2)n1C,i,i,i,nt,i,i
COc1cccc(CNc2nc3cc(C(C)=C(C)C)sc3c(=O)n2C)c1,nt,i,nt,nt,10µM,i
COc1cccc(CNc2nc3cc(-c4ccccc4C)sc3c(=O)n2C)c1,nt,i,nt,nt,i,i
CCn1c(=O)cc(OCC(=O)NCc2ccccc2Cl)c2ccccc21,i,i,nt,i,i,i
SMILES,ERG-DNA inh,PINK1 modulator,Giardia kill,miR-21 reporter,12-LOX inh,PTHR1 ag
CC(=O)NS(=O)(=O)c1ccc(N=c2ssc3c2-c2ccc(C)cc2NC3(C)C)cc1,nt,i,i,i,16µM,i
CN(C)Cc1c(O)ccc2ccccc12,i,i,i,i,i,i
Oc1ccc2ccccc2c1CN(Cc1ccccc1)Cc1ccccc1,nt,nt,nt,nt,3.2µM,nt
CC(C)CN(Cc1c(O)ccc2ccccc12)CC(C)C,i,i,i,i,40µM,i
CC(=O)N1C(=O)C2(C(C#N)=C(N)Oc3n[nH]c(-c4ccccn4)c32)c2ccccc21 (stereo not given),i,i,i,i,?,i
O=C(O)c1ccc(N2CC3CC(C2)c2cccc(=O)n2C3)c(NC(=S)Nc2ccc(Br)cc2)c1 (stereo not given),i,i,i,i,40µM,i
CCc1ccc(NC(=S)Nc2cc(C(=O)O)ccc2N2CC3CC(C2)c2cccc(=O)n2C3)cc1 (stereo not given),i,i,?,i,?,i
CCOC(=O)c1cc(-c2ccco2)nc2c1c(C)nn2-c1cccc(Cl)c1,i,i,i,i,14µM!,i
CCOC(=O)c1cc(-c2ccco2)nc2c1c(C)nn2CCC#N,i,i,i,i,?,i
CCN(CC(=O)NCC1CCCO1)S(=O)(=O)c1ccc(Cl)cc1 (stereo not given),i,i,i,i,i,i
CN(C)S(=O)(=O)c1cccc(NC(=S)Nc2ccc(Cl)cc2Cl)c1,i,16µM,i,i,i,i
Cc1ccc2cc(CN(Cc3ccc4c(c3)OCO4)Cc3nnnn3Cc3ccco3)c(=O)[nH]c2c1C,i,i,i,i,13µM,i
Cc1ccc(C)c2[nH]c(=O)c(CN(Cc3ccc4c(c3)OCO4)Cc3nnnn3Cc3ccco3)cc12,i,i,i,i,?,i
COc1ccc(C(=O)O/N=C(\N)Cc2ccc(Cl)c(Cl)c2)cc1OC,i,i,i,?,i,?
CCSC1=NSC2=NC(=O)/C(=C\c3coc4ccccc4c3=O)C(=N)N12,nt,i,i,i,45µM,i
CC(C)CC1=NN2C(=N)/C(=C\c3coc4ccccc4c3=O)C(=O)N=C2S1,i,i,i,i,?,i
Cc1ccccc1N/N=C1\CCCNC1=O,i,i,i,i,4.5µM,i
Cc1ccc(C)c(N/N=C2\CCCNC2=O)c1,i,i,i,i,8.9µM,i
COc1ccccc1N1CCN(C2CC(=O)N(c3cccc(Br)c3)C2=O)CC1 (stereo not given),i,i,i,i,?,?
COc1ccc(-c2ccc(C)cc2)cc1C1C2C=CCCC2(C)C(=O)N1Cc1ccccc1 (stereo not given),nt,nt,i,nt,nt,nt
Cc1cccc(N2CCN(c3ccc(NC(=O)c4ccccc4)cc3C(=O)O)CC2C)c1 (stereo not given),i,i,nt,i,?,i
Cc1cccc(N2CCN(c3ccc(C(=O)O)cc3NC(=O)c3cccc(Cl)c3)CC2C)c1 (stereo not given),i,i,nt,i,45µM,i
COC(=O)CC/C(=N/Nc1ccc(Cl)c(Cl)c1)C(=O)OC,i,i,i,i,16µM,i
S=c1[nH]c(-c2ccccc2)cn1/N=C/c1ccccc1Br,i,i,i,i,?,i

# Compound activity from PubChem BioAssay.
